Assay results published in publication PMC10663846 (The Journal of Biological Chemistry, 2023).

How the values were obtained:
[1] = system: OVCAR8 cells and human PBMCs co-culture, IL-2 secretion; test: OVCAR8:PBMC co-culture, secreted IL-2 (PCR-ELISA); type: cell-based; settings: 1:10 OVCAR8:PBMC, 24 h; MN1.4 500, 100 or 10 μM; rPD-L1 1 μM; triplicate, two donors
Method: For co-culture experiments with excess OVCAR8 ratios, OVCAR8 cells were seeded at 2 × 10^5 cells/well on a 6-well plate and allowed to adhere overnight. The next day, cells were stimulated with 100 ng/ml IFNγ (R&D Systems, Cat. No. 285-IF-100), and two vials of human PBMCs were thawed according to manufacturer’s instructions. On day 3, concentrations of PBMCs and OVCAR8 cells were measured using QuadCount Automated Cell Counter (Accuris Instruments). The concentration of PBMCs required for a 10:1 OVCAR8:PBMC ratio was calculated from the OVCAR8 concentration. […] After 30 min, media was removed from OVCAR8 wells and replaced with 1 ml of treated PBMCs. […]
For co-culture experiments with excess PBMCs ratios, OVCAR8 cells were seeded at 2 × 10^4 cells/well on a 24-well plate and allowed to adhere overnight. […] On day 3, concentrations of PBMCs and OVCAR8 cells were measured. The concentration of PBMCs required for a 1:10 OVCAR8:PBMC ratio was calculated from the OVCAR8 concentration. […]
For co-culture experiments analyzed via IL-2 PCR-ELISA, supernatants were processed using the IL-2 Human ProQuantum Immunoassay Kit (ThermoFisher Scientific, Cat. No. A35603) according to manufacturer’s instructions with the following modifications. […] Absorbance was measured using a Tecan Spark multimode plate reader. […]

[2] = system: OVCAR8 cells and human PBMCs co-culture, TNFα secretion; test: OVCAR8:PBMC co-culture, secreted TNFα (ELISA); type: cell-based; settings: 1:10 OVCAR8:PBMC, 24 h, MN1.4 500, 100 or 10 μM, rPD-L1 1 μM
Method: For co-culture experiments with excess PBMCs ratios, OVCAR8 cells were seeded at 2 × 10^4 cells/well on a 24-well plate and allowed to adhere overnight. The next day, cells were stimulated with 100 ng/ml IFNγ and two vials of human PBMCs were thawed. On day 3, concentrations of PBMCs and OVCAR8 cells were measured. The concentration of PBMCs required for a 1:10 OVCAR8:PBMC ratio was calculated from the OVCAR8 concentration. PBMCs were plated on a separate 24-well plate (1 ml/well) and stimulated with 5 μg/ml of anti-CD3 and 5 μg/ml of anti-CD28 for 30 min before drug treatment. […] After 30 min, media was removed from OVCAR8 wells and replaced with 1 ml of treated PBMCs. After 24 h, the supernatants were collected from each well, and centrifuged at 10,000g for 5 min.
For co-culture experiments analyzed via IL-2 PCR-ELISA, supernatants were processed using the IL-2 Human ProQuantum Immunoassay Kit (ThermoFisher Scientific, Cat. No. A35603) according to manufacturer’s instructions with the following modifications. The low-volume protocol was followed for samples from excess OVCAR8 co-culture experiments and antibody control experiments. […] TNFα levels were also assessed in excess PBMC co-culture samples using TNFα ELISA MAX Deluxe Set from BioLegend (Cat. No. 430204) according to manufacturer’s instructions. Absorbance was measured using a Tecan Spark multimode plate reader. […]

“rPD-L1: full-length, recombinant PD-L1 (R&D systems, Cat. No. 156-B7-100)” was tested. Which “IL-2 levels compared to untreated co-culture control” value [1] did it give?
The value was “significantly decreased”.

What about the “TNFα levels compared to untreated co-culture control” value [2] of the same substance?
The value was “significantly decreased”.
